Assay results taken from PubChem BioAssay AID463190 (Sanford-Burnham Center for Chemical Genomics, 2010).
Only a part is listed here, and it is no random draw. Some results for these compounds are left out of this collection, so the calls shown say nothing about other tests. Activity calls are given as the source filed them.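 Rule for the calls: active = inhibition of at least 40%; inactive = the rest.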

Test: growth inhibitors of tim10-1 mutant yeast, primary screen, luminescence, uHTS (AID 463190);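 note: mutant grown at 25 °C; 0% = DMSO wells with yeast and 100% = wells holding no yeast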
Details: S. cerevisiae tim10-1 ts strain growth, BacTiter-Glo, 24 h; at 20 µM; stronger effect = higher value

**Q.** With CCN(CC)CC(C)C(C)OC(=O)C(O)(c1ccccc1)c1ccccc1 (centres undefined) as the compound, how does the inhibition read?
**A.** Its inhibition is inactive: -7.35%.

**Q.** Which inhibition does the source give for COc1cc(SC)ccc1C(=O)NCC1(N(C)C)CCCCC1 here?
**A.** The inhibition was inactive: 7.43%.

**Q.** Which inhibition does the source give for CC(C)N1C(=O)CC2(CCN(CCOC(=O)C(O)(c3ccccc3)c3ccccc3)CC2)C1=O here?
**A.** Its inhibition is inactive: -13.9%.

**Q.** With Cc1ccc(C(=O)NCC2(N3CCCCC3)CCCCC2)cc1 as the compound, how does the inhibition read?
**A.** The inhibition was inactive: -4.72%.

**Q.** With O=C(NCC1(N2CCCCC2)CCCCC1)c1cc([N+](=O)[O-])ccc1Cl as the compound, how does the inhibition read?
**A.** The inhibition was inactive: 11.9%.

**Q.** With CN1[C@@H]2CC[C@H]1CC(OC(=O)C(O)(c1ccccc1)c1ccccc1)C2 (some centres undefined) as the compound, how does the inhibition read?
**A.** The inhibition was inactive: -0.727%.

**Q.** Which inhibition does the source give for C=CCN1CCN(CCOC(=O)C(O)(c2ccccc2)c2ccccc2)CC1 here?
**A.** Its inhibition is inactive: 7%.

**Q.** For O=C(NCC1(N2CCCCC2)CCCCC1)c1cc(F)c(F)cc1Cl, which inhibition is on record?
**A.** Its inhibition is inactive: -5.47%.

**Q.** Which inhibition does the source give for COc1ccc(C(=O)NCC2(N(C)C)CCCCC2)cc1 here?
**A.** The inhibition was inactive: 13.6%.

**Q.** With Cc1cc(C(=O)NCC2(N3CCCCC3)CCCCC2)ccc1[N+](=O)[O-] as the compound, how does the inhibition read?
**A.** Its inhibition is inactive: 18.4%.

**Q.** With CCN1CCCC(OC(=O)C2(O)c3ccccc3C=Cc3ccccc32)C1 (centres undefined) as the compound, how does the inhibition read?
**A.** The inhibition was inactive: 9.54%.

**Q.** For O=C(NCC1(N2CCCCC2)CCCCC1)c1cccc(Br)c1, which inhibition is on record?
**A.** The inhibition was inactive: -2.78%.

**Q.** For Cc1ccccc1C(=O)NCC1(N2CCCCC2)CCCCC1, which inhibition is on record?
**A.** The inhibition was inactive: 12.7%.

**Q.** For CN(C)C1CCCC1OC(=O)C(O)(c1ccccc1)c1ccccc1 (centres undefined), which inhibition is on record?
**A.** Its inhibition is inactive: 9.82%.

**Q.** For CN(C)c1ccc(C(=O)NCC2(N(C)C)CCCCC2)cc1, which inhibition is on record?
**A.** Its inhibition is inactive: 5.55%.

**Q.** Which inhibition does the source give for COc1cccc(C(=O)NCC2(N3CCCCC3)CCCCC2)c1 here?
**A.** Its inhibition is inactive: 7.04%.

**Q.** With COc1ccc(Cl)cc1C(=O)NCC1(N(C)C)CCCCC1 as the compound, how does the inhibition read?
**A.** Its inhibition is inactive: 3.53%.

**Q.** For O=C(NCC1(N2CCCCC2)CCCCC1)c1cccc(Cl)c1, which inhibition is on record?
**A.** Its inhibition is inactive: -8.66%.

**Q.** With CN(C)C1(CNC(=O)c2ccc(Br)cc2)CCCCC1 as the compound, how does the inhibition read?
**A.** Its inhibition is inactive: 24.1%.

**Q.** Which inhibition does the source give for COc1cc(C(=O)NCC2(N(C)C)CCCCC2)c([N+](=O)[O-])cc1OC here?
**A.** Its inhibition is inactive: 14.2%.

**Q.** Which inhibition does the source give for COc1ccc(Br)c(C(=O)NCC2(N3CCCCC3)CCCCC2)c1 here?
**A.** The inhibition was inactive: 16.7%.

**Q.** For CC(C)Oc1ccc(C(=O)NCC2(N(C)C)CCCCC2)cc1, which inhibition is on record?
**A.** Its inhibition is inactive: -5.01%.

**Q.** Which inhibition does the source give for CN(C)c1cccc(C(=O)NCC2(N(C)C)CCCCC2)c1 here?
**A.** Its inhibition is inactive: -21.8%.

**Q.** With O=C(OC1CN2CCC1CC2)C(CO)(c1ccccc1)c1ccccc1 (centres undefined) as the compound, how does the inhibition read?
**A.** The inhibition was inactive: -0.706%.
